{"sequences": {"note": "Chains of the proteins cited; added tags and fusions are not shown. Lines headed by an entry give the natural chain unless they say otherwise; changes in a name come on top.", "UniProt P29466": "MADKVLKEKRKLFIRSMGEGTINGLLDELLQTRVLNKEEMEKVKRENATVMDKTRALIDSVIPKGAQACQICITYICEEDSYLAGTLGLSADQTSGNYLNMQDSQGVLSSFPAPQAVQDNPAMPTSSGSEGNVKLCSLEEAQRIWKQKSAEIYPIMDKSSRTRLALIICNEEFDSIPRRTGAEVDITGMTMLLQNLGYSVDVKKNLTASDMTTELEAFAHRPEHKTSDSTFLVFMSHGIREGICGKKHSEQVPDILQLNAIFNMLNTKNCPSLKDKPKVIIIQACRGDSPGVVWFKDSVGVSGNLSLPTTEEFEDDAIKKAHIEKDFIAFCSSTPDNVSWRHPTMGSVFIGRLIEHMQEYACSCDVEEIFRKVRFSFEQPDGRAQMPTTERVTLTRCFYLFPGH"}, "source": "PubChem BioAssay AID900", "about": "(National Center for Advancing Translational Sciences (NCATS), 2007)", "note": "Shown are results outside the selection of hits, which stands elsewhere. Active and inactive are the calls of the source. Calls follow the shape of the dose curve; as a rule, active = well fitted inhibition curve with a large enough effect; inconclusive = small, poorly fitted or top-dose-only effect; inactive = flat fitted curve, though single readings scatter.", "data": [{"target": "Caspase-1 (Homo sapiens) (UniProt P29466)", "assay": "qHTS Assay for Allosteric/Competitive Inhibitors of Caspase-1;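 also: plate controls were vehicle for no effect and no substrate for full effect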", "details": "Caspase-1 enzyme, Ac-WEHD-AFC fluorogenic rate; at 25.7 µM (top of the series)", "from_the_text": "NIH Molecular Libraries Screening Centers Network [MLSCN]\nNIH Chemical Genomics Center [NCGC]\nPI Name: Dr. James Wells,\nDr. Enrique Perez-Paya, Dr.Janice Williams, Dr. Dennis Wolan, a person\nThe caspases (Cysteine Aspartyl Protease) comprise a related family of 14 dimeric proteases that are critical mediators of apoptosis (programmed cell death) and inflammation. The caspases represent an important class of drug targets for stroke, ischemia, cancer and inflammatory diseases. […] One goal of this project was to identify compounds that act as allosteric inhibitors via stabilizing the procaspase form of the enzyme. […]\nThe biochemical assay was configured using purified caspase 1 at a high enzyme concentration to promote formation of the homodimers and thus facilitate the identification of allosteric inhibitors. […] After initiation of the assay with substrate the plates were rapidly read using an automated robotic system (Kalypsys, Inc.) to maintain consistent timing. […]\nCaspase 1 was prepared in buffer (50 mM HEPES pH 7.5, 50 mM KCl, 200 mM NaCl, 10 mM DTT, 0.1% CHAPS) at a concentration of 66.6 nM and 3 uL was dispensed to all wells using black solid Kalypsys 1536-well plates. […] The plates were then exposed using 405 nm excitation/520 nm emission filters for 4 sec and read at 20 sec intervals for 3 min. […]", "values": [{"smiles": "Cc1cc2c(C(C)C)c(O)c(O)c(C=O)c2c(O)c1-c1c(C)cc2c(C(C)C)c(O)c(O)c(C=O)c2c1O", "activity change, negative = inhibition": "inactive: -6.57%"}]}]}
